Laboratory results published in article PMC7479175, “Selection of Potent Inhibitors of Soluble Epoxide Hydrolase for Usage in Veterinary Medicine” (Frontiers in Veterinary Science, 2020).

The chains behind the UniProt entries cited, without tags or fusion partners. Residues count along the entry.
UniProt A0ABI7ZL20, 1-554: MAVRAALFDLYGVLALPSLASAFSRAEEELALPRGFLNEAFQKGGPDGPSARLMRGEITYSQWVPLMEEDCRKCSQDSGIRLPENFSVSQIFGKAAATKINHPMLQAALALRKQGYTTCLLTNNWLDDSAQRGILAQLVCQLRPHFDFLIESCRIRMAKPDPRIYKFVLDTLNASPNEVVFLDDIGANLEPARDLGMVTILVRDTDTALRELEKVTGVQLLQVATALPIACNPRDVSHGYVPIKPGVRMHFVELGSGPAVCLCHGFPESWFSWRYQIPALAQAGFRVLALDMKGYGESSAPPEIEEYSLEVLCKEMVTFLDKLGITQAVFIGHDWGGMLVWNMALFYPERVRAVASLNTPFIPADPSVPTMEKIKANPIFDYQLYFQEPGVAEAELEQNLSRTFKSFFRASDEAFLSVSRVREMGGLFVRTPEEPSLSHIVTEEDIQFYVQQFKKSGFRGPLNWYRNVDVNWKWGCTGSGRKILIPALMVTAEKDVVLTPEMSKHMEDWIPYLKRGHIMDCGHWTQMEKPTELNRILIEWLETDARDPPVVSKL
UniProt A0A8I3NJL8, 1-556: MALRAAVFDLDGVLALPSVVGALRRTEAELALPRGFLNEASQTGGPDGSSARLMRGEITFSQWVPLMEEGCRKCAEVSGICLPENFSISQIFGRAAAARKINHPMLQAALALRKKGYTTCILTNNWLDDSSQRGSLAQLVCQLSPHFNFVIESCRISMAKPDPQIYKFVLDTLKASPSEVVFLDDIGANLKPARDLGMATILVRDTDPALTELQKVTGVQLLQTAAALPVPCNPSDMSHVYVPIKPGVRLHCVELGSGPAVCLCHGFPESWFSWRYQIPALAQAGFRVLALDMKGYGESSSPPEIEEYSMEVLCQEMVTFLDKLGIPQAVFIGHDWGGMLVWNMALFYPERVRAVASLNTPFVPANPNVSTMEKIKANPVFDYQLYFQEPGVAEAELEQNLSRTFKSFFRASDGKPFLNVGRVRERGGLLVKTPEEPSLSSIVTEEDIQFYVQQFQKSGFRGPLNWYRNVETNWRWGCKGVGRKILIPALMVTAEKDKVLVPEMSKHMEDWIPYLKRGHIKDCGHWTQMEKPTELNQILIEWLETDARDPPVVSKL
UniProt F7C407, 1-555: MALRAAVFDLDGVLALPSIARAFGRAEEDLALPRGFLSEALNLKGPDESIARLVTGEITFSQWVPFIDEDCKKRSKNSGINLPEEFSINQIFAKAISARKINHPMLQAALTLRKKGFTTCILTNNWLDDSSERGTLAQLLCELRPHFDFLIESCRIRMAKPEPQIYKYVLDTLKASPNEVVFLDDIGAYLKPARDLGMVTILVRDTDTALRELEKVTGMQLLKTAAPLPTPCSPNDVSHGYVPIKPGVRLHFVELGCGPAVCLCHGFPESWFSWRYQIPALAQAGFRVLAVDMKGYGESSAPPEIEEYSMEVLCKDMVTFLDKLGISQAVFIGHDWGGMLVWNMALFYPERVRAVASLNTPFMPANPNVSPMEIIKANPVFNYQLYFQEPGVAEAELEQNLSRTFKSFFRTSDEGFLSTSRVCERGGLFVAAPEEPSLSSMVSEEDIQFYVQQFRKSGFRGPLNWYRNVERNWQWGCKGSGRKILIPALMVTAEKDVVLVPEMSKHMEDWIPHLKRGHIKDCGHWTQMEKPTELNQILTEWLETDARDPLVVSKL

Tests used:
Type in all cases: biochemical
Cat sEH [1] = molecular target: T1, Cat sEH (Felis catus, UniProt A0ABI7ZL20); assay: Primary screen (end point) of the sEH inhibitor library, PHOME substrate; settings: [I] = 100 nM, primary end-point screening
Dog sEH [2] = molecular target: T2, Dog sEH (Canis lupus familiaris, UniProt A0A8I3NJL8); assay: as above; settings: [I] = 100 nM, primary end-point screening
Horse sEH [3] = molecular target: T3, Horse sEH (Equus caballus, UniProt F7C407); assay: as above; settings: [I] = 100 nM, primary end-point screening
Cat sEH [4] = molecular target: T1, Cat sEH; assay: Secondary screen (kinetic mode), PHOME substrate; settings: [I] = 100 nM, secondary kinetic mode screening
Dog sEH [5] = molecular target: T2, Dog sEH; assay: Secondary screen (kinetic mode), PHOME substrate; settings: [I] = 100 nM, secondary kinetic mode screening
Horse sEH [6] = molecular target: T3, Horse sEH; assay: Secondary screen (kinetic mode), PHOME substrate; settings: [I] = 100 nM, secondary kinetic mode screening

Structure (SMILES): O=C(CCCCCCCCCCCNC(=O)NC12CC3CC(CC(C3)C1)C2)NO
- Cat sEH Inhibition (%) P. (Cat sEH [1]): 102%
- Dog sEH Inhibition (%) P. (Dog sEH [2]): 91%
- Horse sEH Inhibition (%) P. (Horse sEH [3]): < 90%
- Cat sEH Inhibition (%) S. (Cat sEH [4]): 99%
- Dog sEH Inhibition (%) S. (Dog sEH [5]): 80%
- Horse sEH Inhibition (%) S. (Horse sEH [6]): 90%

Structure (SMILES): CC(=O)N1CCN(CCCCOc2cccc(NC(=O)NC34CC5CC(CC(C5)C3)C4)c2)CC1
- Cat sEH Inhibition (%) P. (Cat sEH [1]): 93%
- Dog sEH Inhibition (%) P. (Dog sEH [2]): 91%
- Horse sEH Inhibition (%) P. (Horse sEH [3]): 100%
- Cat sEH Inhibition (%) S. (Cat sEH [4]): 98%
- Dog sEH Inhibition (%) S. (Dog sEH [5]): 81%
- Horse sEH Inhibition (%) S. (Horse sEH [6]): 95%

Structure (SMILES): O=C(NCCCCCOCCCCCOCC(F)(F)F)NC12CC3CC(CC(C3)C1)C2
- Cat sEH Inhibition (%) P. (Cat sEH [1]): 97%
- Dog sEH Inhibition (%) P. (Dog sEH [2]): 90%
- Horse sEH Inhibition (%) P. (Horse sEH [3]): 104%
- Cat sEH Inhibition (%) S. (Cat sEH [4]): 100%
- Dog sEH Inhibition (%) S. (Dog sEH [5]): 80%
- Horse sEH Inhibition (%) S. (Horse sEH [6]): 88%

Structure (SMILES): NS(=O)(=O)c1ccc(-n2nc(CCCNC(=O)NC3CCCCCC3)cc2-c2ccccc2)cc1
- Cat sEH Inhibition (%) P. (Cat sEH [1]): 109%
- Dog sEH Inhibition (%) P. (Dog sEH [2]): 93%
- Horse sEH Inhibition (%) P. (Horse sEH [3]): 98%
- Cat sEH Inhibition (%) S. (Cat sEH [4]): 103%
- Dog sEH Inhibition (%) S. (Dog sEH [5]): 89%
- Horse sEH Inhibition (%) S. (Horse sEH [6]): 95%

Structure (SMILES): CC(C)c1cccc(C(C)(C)NC(=O)NCC2CCN(C(=O)OC(C)(C)C)CC2)c1
- Cat sEH Inhibition (%) P. (Cat sEH [1]): 102%
- Dog sEH Inhibition (%) P. (Dog sEH [2]): < 90%
- Horse sEH Inhibition (%) P. (Horse sEH [3]): 103%
- Cat sEH Inhibition (%) S. (Cat sEH [4]): 90%
- Dog sEH Inhibition (%) S. (Dog sEH [5]): 81%
- Horse sEH Inhibition (%) S. (Horse sEH [6]): 96%
